The test relates to CHO cell line expressing the M1 muscarinic receptor. Description: Pooled two-target microfluidic screen: Fluo-4 green fluorescence response of CHO-M1 cells. Format: cell-based. The conditions noted are these: pooled with THP-1 cells, microfluidic channel, blue excitation light, FIG. 6. Here is the method: A THP-1 cell line was labeled with Fura red. Both cell lines were pooled and introduced into microfluidic device having the channel structure illustrated in FIG. 5. The cells were flowed through the main channel of the device past a detector that excited the cells with blue excitation light. Green fluorescence was analyzed from the Fluo-4 labeled CHO cells to measure their response to the test compounds. The measurement of the different fluorescence was accomplished simultaneously through the use of appropriate beam splitters and filters in the optical train of the detector. Similarly, red fluorescence was measured from the Fura-red labeled THP-1 cells to measure their response. […] Similarly, different concentrations of UTP were also contacted with the cells flowing through the channel and the results for each system were plotted (FIG. 6C-D).

Structures are written as SMILES.

Experimental findings from patent US20010036626A1, “Screening assay methods and systems using target pooling” (priority 2000, published 2001) are described below.

Turning to `C[N+](C)(C)CCOC(N)=O` [carbachol], the “green fluorescence response of Fluo-4 labeled CHO-M1 cells to different concentrations of test compound” value is listed as “dose dependent change”.
